The test deals with Indoleamine 2,3-dioxygenase 1 (Homo sapiens, UniProt P14902). The following applies: hela.

Chains of the proteins cited; added tags and fusions are not shown.
UniProt P14902, whole entry, looked up: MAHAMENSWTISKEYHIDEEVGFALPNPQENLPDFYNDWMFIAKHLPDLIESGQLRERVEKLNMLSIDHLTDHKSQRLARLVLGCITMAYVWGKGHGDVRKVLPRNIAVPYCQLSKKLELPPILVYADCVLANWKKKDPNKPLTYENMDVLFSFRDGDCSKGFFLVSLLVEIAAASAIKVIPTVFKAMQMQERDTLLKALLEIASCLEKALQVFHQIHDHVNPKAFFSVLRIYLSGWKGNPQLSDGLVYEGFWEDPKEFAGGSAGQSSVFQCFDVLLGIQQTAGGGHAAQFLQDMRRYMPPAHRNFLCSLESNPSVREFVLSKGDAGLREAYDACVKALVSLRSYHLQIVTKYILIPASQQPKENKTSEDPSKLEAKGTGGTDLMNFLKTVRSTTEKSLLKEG

By IC50 is commonly meant the concentration at which inhibition is half-maximal. A high value points to a need for much substance. For `COP(C)(=O)NCCCNc1nonc1/C(=N/O)Nc1ccc(F)c(Br)c1` (stereo unspecified), half-maximal inhibition (IC50) was put at 2.6 nM.
